Laboratory results from patent US11866518B2, “Bicyclic peptide ligands specific for TSLP” (BicycleTx Limited, priority 2020, dated 2024).
pKd: −log10 of the molar value.

Biological target: T1, TSLP (Homo sapiens, UniProt Q969D9)
T1 sequence (Q969D9 29-159): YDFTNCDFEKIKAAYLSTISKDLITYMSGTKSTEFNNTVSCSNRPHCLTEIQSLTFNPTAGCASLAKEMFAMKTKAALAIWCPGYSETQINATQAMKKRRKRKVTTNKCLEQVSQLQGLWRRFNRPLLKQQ
Experiment: Human TSLP Surface Plasmon Resonance (SPR) binding assay
Parameters: The resulting construct spCD33-6×HN-TEV-hTSLP(29-159)-Avi; 6xHN tag with TEV site (N, cleaved yes); made in house; host or cells: Expi293F cells
Conditions: biotinylated human TSLP immobilized on streptavidin chip; 20° C.; steady-state or kinetic 1:1 fit; read-out: hTSLP SPR Kd

Compound	pKd
CC(C)C[C@@H]1NC(=O)[C@H](Cc2c[nH]c3ccccc23)NC(=O)[C@H](CC(C)C)NC(=O)[C@@H](NC(=O)[C@@H](NC(=O)[C@@H]2CCCN2C(=O)[C@@H](N)CO)[C@@H](C)O)CSCCC(=O)N2CN3CN(C2)C(=O)CCSC[C@H](NC(=O)[C@H](CC(=O)O)NC(=O)[C@H](CC(=O)O)NC1=O)C(=O)N[C@@H](Cc1c[nH]c2ccccc12)C(=O)N[C@@H](CCCNC(=N)N)C(=O)NCC(=O)N[C@@H](Cc1ccccc1)C(=O)N[C@H](C(=O)N[C@@H](C)C(N)=O)CSCCC3=O [Example 85, SPT-(SEQ ID NO: 65)-A]	6.92
CC(C)C[C@@H]1NC(=O)[C@H](Cc2c[nH]c3ccccc23)NC(=O)[C@H](CCC(N)=O)NC(=O)[C@@H](NC(=O)[C@H](CCCNC(=N)N)NC(=O)[C@@H]2CCCN2C(=O)[C@H](CCCCN)NC(=O)[C@@H]2CCCN2C(=O)[C@@H]2CCCN2C(=O)[C@@H](N)CC(=O)O)CSCCC(=O)N2CN3CN(C2)C(=O)CCSC[C@H](NC(=O)[C@H](CC(=O)O)NC(=O)[C@H](CCC(=O)O)NC1=O)C(=O)N[C@@H](Cc1c[nH]c2ccccc12)C(=O)N[C@@H](CCCNC(=N)N)C(=O)NCC(=O)N[C@@H](Cc1ccccc1)C(=O)N[C@H](C(=O)N[C@@H](C)C(N)=O)CSCCC3=O [Example 87, DPPKPR-(SEQ ID NO: 38)-A]	6.92
CC(=O)N[C@H]1CSCCC(=O)N2CN3CN(C2)C(=O)CCSC[C@H](NC(=O)[C@H](CC(=O)O)NC(=O)[C@H](CCC(=O)O)NC(=O)[C@H](CC(C)C)NC(=O)[C@H](Cc2c[nH]c4ccccc24)NC(=O)[C@H](CCC(N)=O)NC1=O)C(=O)N[C@@H](Cc1c[nH]c2ccccc12)C(=O)N[C@@H](CCCNC(=N)N)C(=O)NCC(=O)N[C@@H](Cc1c[nH]c2ccccc12)C(=O)N[C@H](C(N)=O)CSCCC3=O [Example 140, Ac-(SEQ ID NO: 99)]	6.26
CC(C)C[C@@H]1NC(=O)[C@H](Cc2c[nH]c3ccccc23)NC(=O)[C@H](Cc2c[nH]c3ccccc23)NC(=O)[C@H](CCC(N)=O)NC(=O)[C@H](CCC(=O)O)NC(=O)[C@@H]2CSCCC(=O)N3CN(CN(C3)C(=O)CCSC[C@@H](C(=O)N[C@@H](C)C(N)=O)NC1=O)C(=O)CCSC[C@H](NC(=O)[C@H](C)NC(=O)CNC(=O)[C@@H](N)Cc1ccc(O)cc1)C(=O)N[C@@H](C(C)C)C(=O)N[C@@H](CC(=O)O)C(=O)N[C@@H](CC(C)C)C(=O)N[C@@H](CC(=O)O)C(=O)N1CCC[C@H]1C(=O)N[C@@H](Cc1c[nH]c3ccccc13)C(=O)N[C@@H]([C@@H](C)O)C(=O)N2 [Example 166, YGA-(SEQ ID NO: 124)-A]	6.92
CC(C)C[C@@H]1NC(=O)[C@H](Cc2c[nH]c3ccccc23)NC(=O)[C@H](Cc2c[nH]c3ccccc23)NC(=O)[C@H](CO)NC(=O)[C@H](CO)NC(=O)[C@@H]2CSCCC(=O)N3CN(CN(C3)C(=O)CCSC[C@H](NC(=O)[C@@H]3CCCN3C(=O)[C@H](Cc3ccc(O)cc3)NC(=O)[C@@H](NC(=O)[C@H](CC(=O)O)NC(=O)[C@@H](NC(=O)[C@@H](N)CCC(=O)O)C(C)C)[C@@H](C)O)C(=O)N[C@@H](CCCNC(=N)N)C(=O)N[C@@H](CC(=O)O)C(=O)N[C@@H](CC(C)C)C(=O)N[C@@H](CC(=O)O)C(=O)N3CCC[C@H]3C(=O)N[C@@H](Cc3c[nH]c4ccccc34)C(=O)N[C@@H]([C@@H](C)O)C(=O)N2)C(=O)CCSC[C@@H](C(=O)N[C@@H](C)C(N)=O)NC1=O [Example 192, EVDTYP-(SEQ ID NO: 122)-A]	7.08
CC(C)C[C@@H]1NC(=O)[C@H](Cc2c[nH]c3ccccc23)NC(=O)[C@@H]2CSCCC(=O)N3CN(CN(C3)C(=O)CCSC[C@H](N)C(=O)N[C@@H](CC(=O)O)C(=O)N[C@@H](Cc3c[nH]c4ccccc34)C(=O)N[C@@H](Cc3c[nH]cn3)C(=O)N[C@@H](Cc3c[nH]c4ccccc34)C(=O)N[C@@H](CCC(=O)O)C(=O)N[C@@H](Cc3ccc(O)cc3)C(=O)N[C@@H](CC(=O)O)C(=O)N2)C(=O)CCSC[C@@H](C(=O)N[C@@H](C)C(=O)N2CCC[C@H]2C(=O)N[C@@H](CC(=O)O)C(=O)N[C@@H](Cc2c[nH]cn2)C(=O)N[C@@H](CC(C)C)C(=O)N2CCC[C@H]2C(N)=O)NC(=O)[C@H](CO)NC1=O [Example 224, (SEQ ID NO: 144)-APDHLP]	7.18
CC[C@H](C)[C@@H]1NC(=O)[C@@H](NC(=O)[C@H](CC(N)=O)NC(=O)[C@H](CCCNC(=N)N)NC(=O)[C@@H](N)CCC(=O)O)CSCCC(=O)N2CN3CN(C2)C(=O)CCSC[C@H](NC(=O)[C@H](CC(=O)O)NC(=O)[C@H](Cc2ccc(O)cc2)NC(=O)[C@H](CCCCN)NC(=O)[C@H](Cc2c[nH]c4ccccc24)NC(=O)[C@H](CC(=O)O)NC(=O)[C@H](Cc2c[nH]c4ccccc24)NC1=O)C(=O)N[C@@H](Cc1c[nH]c2ccccc12)C(=O)N[C@@H](CC(C)C)C(=O)NCC(=O)N[C@H](C(=O)N[C@@H](C)C(N)=O)CSCCC3=O [Example 225, ERN-(SEQ ID NO: 155)-A]	7.15
(SEQ ID NO: 144)-DPSSKQ [Example 226]	7.12
A-(SEQ ID NO: 122)-SSDTTDA [Example 176]	6.52
A-(SEQ ID NO: 144)-YDNEMSA [Example 213]	6.92
Ac-(SEQ ID NO: 2) [Example 2]	8.62
Ac-(SEQ ID NO: 3) [Example 3]	8.60
Ac-(SEQ ID NO: 7) [Example 9]	8.32
Ac-(SEQ ID NO: 10) [Example 12]	8.23
Ac-(SEQ ID NO: 11) [Example 13]	8.22
Ac-(SEQ ID NO: 22) [Example 24]	8.00
Ac-(SEQ ID NO: 30) [Example 34]	7.82
Ac-(SEQ ID NO: 31) [Example 35]	7.82
Ac-(SEQ ID NO: 36) [Example 40]	7.66
Ac-(SEQ ID NO: 44) [Example 52]	7.42
Ac-(SEQ ID NO: 53) [Example 72]	7.08
Ac-(SEQ ID NO: 59) [Example 78]	7.03
Ac-(SEQ ID NO: 66) [Example 86]	6.92
Ac-(SEQ ID NO: 104) [Example 145]	6.05
DDEIMQ-(SEQ ID NO: 38)-A [Example 64]	7.16
R^1-(SEQ ID NO: 3) [Example 7]	8.51
R^7-(SEQ ID NO: 144) [Example 219]	6.26
SEAQET-(SEQ ID NO: 144) [Example 214]	7.15
tertBuCO-(SEQ ID NO: 3) [Example 6]	8.55
